We go through 6 compounds from US10100016B2, “Condensed ring derivative, and preparation method, intermediate, pharmaceutical composition and use thereof” (SHANGHAI YINGLI PHARMACEUTICAL CO., LTD., priority 2015, dated 2018).

Chains of the proteins cited; added tags and fusions are not shown. Lines headed by an entry give the natural chain unless they say otherwise; changes in a name come on top.
UniProt Q96S37: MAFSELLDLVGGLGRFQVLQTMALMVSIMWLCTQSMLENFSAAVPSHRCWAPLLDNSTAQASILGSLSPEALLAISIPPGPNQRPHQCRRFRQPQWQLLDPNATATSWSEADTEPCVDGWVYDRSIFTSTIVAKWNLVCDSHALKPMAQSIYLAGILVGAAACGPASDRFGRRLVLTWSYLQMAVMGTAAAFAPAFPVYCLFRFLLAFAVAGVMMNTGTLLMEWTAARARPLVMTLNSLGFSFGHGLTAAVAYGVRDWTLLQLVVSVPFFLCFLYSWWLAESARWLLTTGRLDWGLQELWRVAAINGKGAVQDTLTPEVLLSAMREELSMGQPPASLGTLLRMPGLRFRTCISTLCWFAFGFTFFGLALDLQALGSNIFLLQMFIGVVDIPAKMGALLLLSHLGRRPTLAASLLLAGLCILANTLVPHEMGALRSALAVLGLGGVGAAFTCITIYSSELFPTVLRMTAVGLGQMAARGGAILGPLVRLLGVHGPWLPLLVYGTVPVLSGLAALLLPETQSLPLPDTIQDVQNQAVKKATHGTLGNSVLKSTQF

A word on the IC50: it is the point on the concentration scale where inhibition reaches its midpoint.

For the experiment, the target named is hURAT1 (Homo sapiens (Human), UniProt Q96S37). The experiment can be described thus: 14C-uric acid transport inhibition in transfected HEK293/hURAT1 cells. In kind it is cell-based. The settings on record: 14C-uric acid uptake, 10 mins incubation, read-out: IC50 value against hURAT1. On the procedure: Human embryonic kidney cells (HEK293) was incubated in DMEM tissue culture medium, at 37° C., under 5% CO2 and 95% air atmosphere. […] Transfected HEK293/hURAT1 cells were used to the test for ^14C-uric acid transport activity.
The uric acid [8-14C] […] The incubating solution was removed after 10 mins incubation, followed by adding 100 μL cold washing buffer, after washing with this buffer for 3 times, the buffer was completely removed from the well.
With “3-[4-[(4-Cyanonaphthalen-1-yl)thieno[2,3-c]pyridine-2-yl]propionic acid [Compound 37]”, the IC50 came out at 35 nM. Take `C[C@H](Cc1cc2cncc(-c3ccc(C#N)c4ccccc34)c2s1)C(=O)O` (single isomer, unassigned) [Compound 46A]: the IC50 is 148 nM.

For the compound `C[C@@H](Cc1cc2cncc(-c3ccc(C#N)c4ccccc34)c2s1)C(=O)O` (single isomer, unassigned) [Compound 46B], the half-inhibitory concentration (IC50) turned out to be 51 nM. On to `O=C(O)CCc1cc2cccc(Cc3c(Cl)cccc3Cl)c2s1` [Compound 35, 3-{7-[(2,6-Dichlorophenyl)methyl]-1-benzothiophene-2-yl}propionic Acid], for which the IC50 was 2410 nM. On to `O=C(O)CCc1cc2c(Cc3c(Cl)cccc3Cl)cccc2s1` [Compound 36, 3-{4-[(2,6-Dichlorophenyl)methyl]-1-benzothiophene-2-yl}propionic Acid], for which the IC50 was 542 nM. With `CC(C)(Cc1cc2c(-c3ccc(C#N)cc3)cncc2s1)C(=O)O` [Compound 48, 3-[4-(4-Cyanophenyl)thieno[2,3-c]pyridin-2-yl]-2,2-dimethyl propionic Acid], the IC50 came to 12 nM.
